Reference: patent publication US9206184B2, “Disubstituted benzothienyl-pyrrolotriazines and uses thereof” (BAYER INTELLECTUAL PROPERTY GmbH, priority 2011, dated 2015)

System: Human umbilical vein endothelial cells (HUVEC)
Assay: Inhibition of growth factor-mediated cell proliferation (hFGF-2, HUVEC)
Type: cell-based
Settings: 72 h, read-out: hFGF-2 mediated HUVEC proliferation, IC50 [nM]

Structure (SMILES) | IC50 [nM]
CCOCc1c(-c2cc3cc(C)cc(OC)c3s2)c2c(N)ncnn2c1CN1CCNC(=O)C1 [Example 5, 4-{[4-Amino-6-(ethoxymethyl)-5-(7-methoxy-5-methyl-1-benzothiophen-2-yl)pyrrolo[2,1-f]-[1,2,4]triazin-7-yl]methyl}piperazin-2-one] | 5.3
COCc1c(-c2cc3cc(C)cc(OC)c3s2)c2c(N)ncnn2c1CN[C@@H]1CCNC1=O [Example 4, (3R)-3-({[4-Amino-6-(methoxymethyl)-5-(7-methoxy-5-methyl-1-benzothiophen-2-yl)pyrrolo-[2,1-f][1,2,4]triazin-7-yl]methyl}amino)pyrrolidin-2-one] | 17.5
